From patent US8715709B2, “Sustained release intraocular implants and methods for treating ocular neuropathies” (Allergan, Inc., priority 2004, dated 2014)

Settings: rabbit, in vivo
Source text: Sampling was done from the anterior chamber for the first five animals after 1 hr, 3 hr, 6 hr, 12 hr, and 24 hr, and from both the anterior chamber and posterior segment of the remaining five animals after 1 hr, 3 hr, 6 hr, 24 hr, and 48 hr. One animal was used for each time point.

level at the 6 hour time point relative to that at one hour time point: about 0.13%
SMILES: CC(C)(C)NC[C@H](O)COc1nsnc1N1CCOCC1 [Timolol Maleate, (−)-1-(tert-butylamino)-3-[(4-morpholino-1,2,5-thiadiazo-3-yl)oxy]-2-propanol maleate, (1:1) salt]

Where a name gives a salt, the structure may show the parent alone.
